From patent US7867492B2, “Compounds for hedgehog pathway blockade in proliferative disorders, including hematopoietic malignancies” (The John Hopkins University, priority 2007, dated 2011)

Legend:
Gli = test: Hh reporter in 3T3 cells cotransfected with SmoA1, Gli2 or Gli1; format: cell-based; conditions: presence or absence of ShhN
[1] = system: hematopoietic malignancy cells; test: Hh pathway activity and viability of hematopoietic malignancy cells in vitro; format: cell-based
[2] = system: prostate tumor xenografts; conditions: nude mice

CC1=C2C[C@H]3[C@@H](CC=C4C[C@@H](O)CC[C@@]43C)[C@@H]2CC[C@]12O[C@@H]1C[C@H](C)CN[C@H]1[C@H]2C [Cyclopamine, cyclopamine]
Hh reporter activity induced by SmoA1, Gli2 or Gli1 over-expression (Gli): unable to block the pathway activity
Elevated Hh pathway activity in hematopoietic malignancy cells [1]: effectively reduced elevated Hh pathway activity
Viability of hematopoietic malignancy cells [1]: reduced viability of the cells
Growth of prostate tumor xenografts [2]: suppressed growth of prostate tumor xenografts
